miR-21 FLuc: raises the signal of a miR-21 reporter; HeLa miR-21 FLuc reporter, luciferase, 48 h; Potency, µM (top dose mostly 38.3 µM); AID 2288; 340,000 tested, under 10 active; active = well fitted rising curve with a large enough effect; inconclusive = small, poorly fitted or top-dose-only effect; inactive = no such curve, though single readings can be large or run the other way;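 note: miR-21 action dims this reporter so a rising signal means less miR-21 action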
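HeLa miR-21-FLuc reporter line, endogenous miR-21; 2000 cells/well in DMEM/10% FBS; compound titration up to ~40uM final, 48 h, 37 degree Celsius; luciferase detection reagent, 15 min lysis, CCD luminescence.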
Mito fusion yeast: mitochondrial division inhibition or fusion activation; S. cerevisiae fusion-defective mutant growth rescue, CellTiterGlo 48 h; Potency, µM (top dose mostly 46.1 µM), most hits filed as activators; 0.23% of 320,000 active; AID 485298; also: nearly all actives have a fitted effect of over 45% in size
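Yeast fusion mutant, YPEG (non-fermentable carbon), compound, 48 h at 37C non-permissive; CellTiterGlo added, 10 min RT, luminescence read. Rescued growth = division inhibition.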
A549 tox: counter-screen for Nrf2 inhibitors: cytotoxicity in A549 cells; A549 ARE-Fluc cells, CellTiter-Fluor viability, 18-24 h; Potency, µM (highest dose often 46 µM), usual class: inhibitors; 0.16% of 390,000 active; AID 504648
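A549 ARE_Fluc cells in 5% FBS OPTI-MEM were exposed to compounds in concentration-response for 18-24 h at 37 deg C. Viability was read by CellTiter-Fluor fluorescence (Ex 405/Em 525) after 30 min, before the luciferase read.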
Nrf2 inh: blocks Nrf2 signaling | A549 ARE-Fluc reporter, luciferase luminescence, 18-24 h | Potency, µM (highest dose often 46 µM), hits mostly inhibitors | AID 504444 | 2.1% of 360,000 active; also: nearly all actives have a fitted effect of over 60% in size
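In this cell-based qHTS, ARE-driven firefly luciferase in A549 cells reports Nrf2 activity; the luminescent signal after BugLite lysis is the measured value, with a prior CellTiter-Fluor read for cell health.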
Nrf2 ARE act: activates Nrf2 signaling | AREc32 ARE-luciferase reporter (MCF7-derived line), luminescence, 24 h | Potency, µM (series often up to 46.1 µM), hits mostly activators | 0.31% of 410,000 active | AID 624171; also: nearly all actives have a fitted effect of over 65% in size
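ARE-driven firefly luciferase activity in AREc32 cells measured after a 24 hr compound exposure at 37 deg C, using Steady-Glo reagent and a 30 min room-temperature hold.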
Numbers stand for hits. Most compounds without a hit are left out; they make up all but 2.3% or so of the library. Unless noted, calls follow the shape of the dose curve; as a rule, active = well fitted curve in the direction sought with a large enough effect; inconclusive = small, poorly fitted or top-dose-only effect, or another doubt; inactive = no such curve, though single readings can be large; an effect the other way counts as inactive or inconclusive.

Screening Cc1nc2cc(-c3ccccc3)nn2c(C)c1CCC(=O)N1CCN(c2ccccn2)CC1 returned miR-21 FLuc inactive and Mito fusion yeast inactive.
`COc1cc(OC)cc(-c2cc3nc(C)c(CCC(=O)NC(C)CCc4ccco4)c(C)n3n2)c1` (stereo not drawn) gave miR-21 FLuc inactive, Mito fusion yeast inactive, A549 tox inactive, Nrf2 inh inconclusive and Nrf2 ARE act inactive.
For Cc1nc2cc(-c3ccccc3)nn2c(C)c1CCC(=O)N1CCN(c2ccc(F)cc2)CC1 the results were miR-21 FLuc inactive, A549 tox inactive, Nrf2 inh 5.2µM and Nrf2 ARE act inactive.
CCCN1CNc2c(c(=O)[nH]c(=S)n2CCC)C1 was read as A549 tox inactive and Nrf2 inh inactive.
Screening Cc1nc(CS(=O)(=O)c2ccccc2)cc(N2CCN(c3ccccc3F)CC2)n1 returned miR-21 FLuc inactive, Mito fusion yeast inactive, A549 tox inactive, Nrf2 inh 21µM and Nrf2 ARE act inactive.
For CCOC(=O)C1=C(C)NC(=O)NC1c1ccc([N+](=O)[O-])o1 (stereo not drawn) the results were miR-21 FLuc inactive, Mito fusion yeast inactive, A549 tox inactive, Nrf2 inh inactive and Nrf2 ARE act inactive.
For CCOC(=O)C1=C(C)NC2=C(C(=O)c3ccccc32)C1c1ccc([N+](=O)[O-])o1 (stereo not drawn) the results were miR-21 FLuc inactive, Mito fusion yeast inactive, A549 tox inactive, Nrf2 inh inactive and Nrf2 ARE act 14µM.
For COc1ccc(OC)c(NC(=O)c2ccc(-c3nc(CSc4ccccc4)c(C)o3)cc2)c1 the results were miR-21 FLuc inactive, A549 tox inactive, Nrf2 inh inconclusive and Nrf2 ARE act inactive.
Screening CC(C)[C@H](NC(=O)c1ccc(C(C)(C)C)cc1)C(=O)N1CCN(Cc2ccc3c(c2)OCO3)CC1 returned A549 tox inconclusive, Nrf2 inh 21µM and Nrf2 ARE act inactive.
C[C@H](NC(=O)c1ccccc1)C(=O)N1CCN(Cc2ccc3c(c2)OCO3)CC1 was read as A549 tox inactive, Nrf2 inh inactive and Nrf2 ARE act inactive.
Screening Cc1ccc(S(=O)(=O)N(C)C)cc1NC(=O)c1cncc(Br)c1 returned miR-21 FLuc inactive, Mito fusion yeast inactive, A549 tox inactive, Nrf2 inh 12µM and Nrf2 ARE act inactive.
For CN(C)S(=O)(=O)c1cccc(NC(=O)c2cncc(Br)c2)c1 the results were miR-21 FLuc inactive, Mito fusion yeast inactive, A549 tox inactive, Nrf2 inh inactive and Nrf2 ARE act inactive.
`O=C(COC(=O)c1ccc(C(F)(F)F)cc1)NC(=O)C1CCCCC1` gave A549 tox inactive and Nrf2 inh inconclusive.
COC(=O)CCCN1C(=O)c2cccc3cccc(c23)C1=O was read as miR-21 FLuc inactive, Mito fusion yeast inactive, A549 tox inactive, Nrf2 inh inactive and Nrf2 ARE act 13µM.
`O=C1c2ccc3c4c(ccc(c24)C(=O)N1CCCCO)C(=O)N(CCCCO)C3=O` gave miR-21 FLuc inconclusive, Mito fusion yeast inactive, A549 tox 18µM, Nrf2 inh inconclusive and Nrf2 ARE act inactive.
For Nc1nc(NCc2ccccc2Cl)c2[nH]cnc2n1 the results were A549 tox inactive and Nrf2 inh inconclusive.
Screening CC1=NN(c2nc3ccccc3[nH]2)C(=O)C1Cc1ccccc1 (stereo not drawn) returned miR-21 FLuc inconclusive, Mito fusion yeast inactive, A549 tox inactive, Nrf2 inh 23µM and Nrf2 ARE act inactive.
CC1=NN(c2nc3ccccc3[nH]2)C(=O)/C1=C/N(C)C was read as miR-21 FLuc inactive, Mito fusion yeast inactive, A549 tox inactive, Nrf2 inh 18µM and Nrf2 ARE act inactive.
Screening COc1ccc(C2Nc3ccccc3C(=O)N2Cc2ccccc2)cc1COc1cccc(C(F)(F)F)c1 (stereo not drawn) returned A549 tox inactive and Nrf2 inh inactive.
Screening Cc1ccc(NC(=O)CSc2ccccc2NC(=O)c2ccccc2Cl)cc1Cl returned miR-21 FLuc inactive, Mito fusion yeast inactive, A549 tox inconclusive, Nrf2 inh 26µM and Nrf2 ARE act inactive.
Screening Cc1ccc(NC(=O)CSc2ccccc2NC(=O)c2ccccc2)cc1Cl returned miR-21 FLuc inactive, Mito fusion yeast inactive, A549 tox inactive, Nrf2 inh inconclusive and Nrf2 ARE act inactive.
Cc1ccccc1C(=O)N1CCN(c2ccc(NC(=O)CSc3ccc(Cl)cc3)cc2)CC1 was read as miR-21 FLuc inactive, Mito fusion yeast inactive, A549 tox inactive, Nrf2 inh 21µM and Nrf2 ARE act inactive.
For O=C(Nc1ccc(N2CCN(C(=O)c3ccccc3)CC2)cc1)c1ccc2c(c1)OCO2 the results were miR-21 FLuc inactive, Mito fusion yeast inactive, A549 tox inactive, Nrf2 inh inconclusive and Nrf2 ARE act inactive.
Screening COc1c(C)cccc1C(=O)Nc1ccc(N2CCN(C(=O)c3ccccc3C)CC2)cc1 returned miR-21 FLuc inconclusive, Mito fusion yeast inactive, A549 tox inactive, Nrf2 inh 21µM and Nrf2 ARE act inactive.
Cc1ccccc1C(=O)N1CCN(c2ccc(NC(=O)c3cccc(OC(C)C)c3)cc2)CC1 was read as miR-21 FLuc inactive, Mito fusion yeast inactive, A549 tox inactive, Nrf2 inh inactive and Nrf2 ARE act inactive.
For CCC(=O)Nc1ccc(N2CCN(C(=O)c3ccccc3C)CC2)cc1 the results were miR-21 FLuc inactive, Mito fusion yeast inactive, A549 tox inactive, Nrf2 inh inactive and Nrf2 ARE act inactive.
For Cc1ccccc1C(=O)N1CCN(c2ccc(NC(=O)c3ccc4c(c3)OCCO4)cc2)CC1 the results were miR-21 FLuc inconclusive, Mito fusion yeast inactive, A549 tox inactive, Nrf2 inh 21µM and Nrf2 ARE act inactive.
For Cn1cc(S(=O)(=O)N2CCCCCC2)cc1C(=O)NCc1ccc(Cl)cc1 the results were miR-21 FLuc inconclusive, A549 tox inactive and Nrf2 ARE act inactive.
Screening COc1ccc(NC(=O)COC(=O)c2c3c(nc4ccccc24)CCCC3)cc1Cl returned miR-21 FLuc inactive, Mito fusion yeast inactive, A549 tox inconclusive, Nrf2 inh 23µM and Nrf2 ARE act inactive.
For CCCn1c(N/N=C\C=C\c2ccccc2)nc2c1c(=O)[nH]c(=O)n2C the results were miR-21 FLuc inactive, Mito fusion yeast inactive, A549 tox inactive, Nrf2 inh 9.2µM and Nrf2 ARE act inactive.
Screening O=C(NCCS(=O)(=O)N1CCN(c2ccc(F)cc2)CC1)c1cc(=O)c2ccccc2o1 returned miR-21 FLuc inactive, A549 tox inactive and Nrf2 ARE act inactive.
CC1CC(C)CN(c2nc(NCc3ccco3)nc(N)c2[N+](=O)[O-])C1 (stereo not drawn) was read as miR-21 FLuc inactive, Mito fusion yeast inconclusive, A549 tox inactive, Nrf2 inh 23µM and Nrf2 ARE act inactive.
Nc1nc(NCc2ccco2)nc(N2CCOCC2)c1[N+](=O)[O-] was read as miR-21 FLuc inactive, Mito fusion yeast inactive, A549 tox inactive, Nrf2 inh inconclusive and Nrf2 ARE act inconclusive.

Bioassay records from PubChem.
